Patent publication US8067372B2, “Modulation of angiogenesis by A-beta peptide fragments” (Alzheimer's Institute of America, Inc., priority 2005, dated 2011)

Assays:
[1] = test system: VEGF-induced angiogenesis; experiment: Rat corneal micropocket assay; type: in vivo; settings: 7 days
Method: This assay was carried out as described previously (Paris D, Townsend K, Quadros A, Humphrey J, Sun J, Brem S, Wotoczek-Obadia M, DelleDonne A, Patel N, Obregon D F, Crescentini R, Abdullah L, Coppola D, Rojiani A M, Crawford F, Sebti S M, Mullan M. (2004) Angiogenesis. 7, 75-85), using hydron pellets containing either VEGF (200 ng) alone, or in combination with different amounts of Aβ peptide fragments. The vascular growth response was measured seven days post implantation. The lengths and widths of vessel outgrowths were measured and the angiogenic index (AI) calculated using the formula L×W=AI. Rats were perfused with colloidal carbon, eyes enucleated and fixed in 10% buffered formalin. Corneas were removed under an Olympus dissecting microscope and mounted on glass slides with Crystal Mount media.

[2] = test system: Human Umbilical Vein Endothelial Cells (HUVEC); experiment: Capillary tube formation assay (HUVEC on Matrigel); type: cell-based; settings: 24 hours
Method: All in-vitro experiments were performed using primary Human Umbilical Vein Endothelial Cells (HUVEC) at passages 3-4, purchased from American Tissue Type Culture Collection (ATCC, VA). Cells were cultured in F12K Medium (ATCC, VA) supplemented with 10% fetal bovine serum (Invitrogen, CA), 0.1 mg/ml Heparin and 0.03 mg/ml endothelial cell growth supplement (Sigma-Aldrich, MO). At all times, cells were maintained in a sterile cell culture incubator at 37° C. and 5% CO2.
HUVEC (7.5×10^4 cells/ml) in 500 μl of medium were seeded in 24-well plates, on top of a layer of Matrigel basement membrane matrix (Invitrogen, CA) in F12K medium (ATCC, VA) containing 4% serum (Invitrogen, CA), 0.1 mg/ml Heparin and 0.03 mg/ml endothelial cell growth supplement (Sigma-Aldrich, MO). Cells were incubated with peptides (or control conditions) for 24 hours. Control wells received the same volume of vehicle (DMSO) used to dilute the peptides. Network formation experiments were performed in triplicate, and at least 2 randomly chosen fields were photographed for each well using a 4× objective. Capillary length was measured using Image Pro Plus software (Media Cybernetic, Inc., MD).

[3] = 0.5, 2.5 and 5.0 μg with 200 ng VEGF

Sequence: VHHQKLVFFAEDVGSNK (listed as Homo sapiens) [Aβ12-28]
- Angiogenic Index: post hoc effect ([1]; 5 μg dose with 200 ng VEGF, P<0.001): significant effect
- Angiogenic Index: ANOVA main effect of dose [1, 3]: significant main effect
- inhibition of VEGF-induced angiogenesis in vivo (Angiogenic Index) [1, 3]: dose dependently inhibit
- Total length of capillary tubes (percentage of control): post hoc difference from control ([2]; 5 and 10 μM doses, P<0.005, n≧8): significant differences
- anti-angiogenic activity in capillary network formation ([2]; tested at 1, 5 and 10 μM): most active
